Experimental data as given in patent publication US20070015231A1, “Assay for protein tyrosine phosphatases” (CEPTYR, Inc., priority 2000, published 2007).

What was measured:
[1] = molecular target: T1, PTP1B(D181A) (Homo sapiens, UniProt P18031, D181A); assay: PTP-1B (DA) binding assay: fluorescence polarization binding of fluorescein-labeled phosphotyrosyl peptides
T1 construct: PTP1B proteins (wild type and mutant forms) comprising amino acids 1-321 were expressed in E. coli; made in house; host or cells: E. coli
T1 sequence (P18031 1-321 D181A): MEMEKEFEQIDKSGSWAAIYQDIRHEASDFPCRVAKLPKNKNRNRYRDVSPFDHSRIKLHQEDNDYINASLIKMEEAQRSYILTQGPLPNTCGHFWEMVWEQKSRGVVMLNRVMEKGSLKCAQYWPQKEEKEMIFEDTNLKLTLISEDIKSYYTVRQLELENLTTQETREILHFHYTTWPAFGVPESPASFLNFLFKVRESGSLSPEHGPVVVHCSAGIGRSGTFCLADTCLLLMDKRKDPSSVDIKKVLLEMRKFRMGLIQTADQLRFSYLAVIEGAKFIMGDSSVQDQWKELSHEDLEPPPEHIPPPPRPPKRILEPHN
Description: (§1) Two assay parameters were measured: (1) the dynamic range of the signal (i.e. the difference between polarization values of the bound and the unbound fluorescent substrate) and (2) the midpoint of the transition between bound and unbound that represents the apparent Kd (i.e. affinity) of each binding mutant for each peptide.
(§2) Assays were set up at room temperature in black polypropylene 96 well microtiter plates (Polyfiltronics, Whatman, U. K.) by the sequential addition of 40 μl of Assay Buffer, 40 μl of diluted binding protein and 40 μl of 0.3 nM fluorescein-labeled substrate peptide. After 15 min plates were read in a Criterion Analyst™ (LJL BioSystems, Inc., Sunnyvale, Calif.) in fluorescence polarization detection mode using the parameters listed as follows:
(§3) To obtain values for background fluorescence, assays were set up as above except the fluorescein-labeled substrate was replaced with Assay Buffer. To determine the fluorescence polarization values for the unbound substrate peptide, assays were set up as above except that the 40 μl of diluted binding protein was replaced with Assay Buffer.

[2] = molecular target: T2, PTP1B(C215S) (Homo sapiens, UniProt P18031, C215S); assay: PTP-1B (CS) binding assay: fluorescence polarization binding of fluorescein-labeled phosphotyrosyl peptides
T2 construct: PTP1B proteins (wild type and mutant forms) comprising amino acids 1-321 were expressed in E. coli; made in house; host or cells: E. coli
T2 sequence (P18031 1-321 C215S): T1 sequence (P18031 1-321 D181A) with A181D, C215S
Description: as §1, §2, §3

[3] = molecular target: fluorescein-labeled p56lck phosphopeptide A-T-E-G-Q-pY-Q-P-Q-P; assay: fluorescence polarization, mutant PTP titrated against fluorescein-labeled peptide in solution

Substance: A-T-E-G-Q-pY-Q-P-Q-P (ATEGQYQPQP; fluorescein label; phosphotyrosine; Substrate for PTBs synthesized from residues 500-509 of p56lck, the src-like lymphocyte specific protein tyrosine kinase that is a physiological substrate for CD45.) [F-lck-P]
- maximum polarization value for bound peptide ([1]; DA binding mutant): 277 mP
- Peak Mp ([1]; Table 2, titrated with DA mutant): 276.9 Mp
- maximum polarization value for the fully bound peptide substrate ([2]; CS binding mutant): 266 mP
- Peak mP ([2]; Table 1, 0.1 nM-range fluorescein-labeled peptide titrated with CS mutant): 266.4 mP

Substance: PTP1B(C215S), amino acids 1-321 (from UniProt P18031 1-321) (enzyme)
- Peak mP [3]: 266 mP

Substance: PTP1B(D181A), amino acids 1-321 (from UniProt P18031 1-321) (enzyme)
- Peak Mp [3]: 277 mP

Positions count from the first letter of the chain named.
